Consider 1 molecule from publication PMC4132815, “Structure and Function of the Bacterial Heterodimeric ABC Transporter CydDC” (The Journal of Biological Chemistry, 2014).

Amino acid sequences for entries named in this document (tags omitted). Chains listed by the source or under a name are the forms on record and can include a tag or linker.
UniProt P23886, whole entry, stated change not applied: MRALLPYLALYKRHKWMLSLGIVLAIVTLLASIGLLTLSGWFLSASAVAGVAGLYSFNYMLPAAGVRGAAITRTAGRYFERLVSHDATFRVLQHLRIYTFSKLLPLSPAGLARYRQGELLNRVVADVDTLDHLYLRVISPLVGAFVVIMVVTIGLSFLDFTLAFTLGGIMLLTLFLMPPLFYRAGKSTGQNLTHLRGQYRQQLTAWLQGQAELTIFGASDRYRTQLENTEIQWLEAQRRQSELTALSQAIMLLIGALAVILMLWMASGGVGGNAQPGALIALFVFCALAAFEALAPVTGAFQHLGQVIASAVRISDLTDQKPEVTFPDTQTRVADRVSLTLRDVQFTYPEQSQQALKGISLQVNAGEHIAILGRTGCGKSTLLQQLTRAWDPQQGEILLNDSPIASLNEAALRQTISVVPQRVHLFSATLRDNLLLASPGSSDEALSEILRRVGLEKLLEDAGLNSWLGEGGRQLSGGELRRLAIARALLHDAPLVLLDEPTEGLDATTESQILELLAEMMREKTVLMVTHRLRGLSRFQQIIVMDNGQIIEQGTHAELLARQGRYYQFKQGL
UniProt P29018, other isoform, or with tags, fused parts or gaps INS2NS: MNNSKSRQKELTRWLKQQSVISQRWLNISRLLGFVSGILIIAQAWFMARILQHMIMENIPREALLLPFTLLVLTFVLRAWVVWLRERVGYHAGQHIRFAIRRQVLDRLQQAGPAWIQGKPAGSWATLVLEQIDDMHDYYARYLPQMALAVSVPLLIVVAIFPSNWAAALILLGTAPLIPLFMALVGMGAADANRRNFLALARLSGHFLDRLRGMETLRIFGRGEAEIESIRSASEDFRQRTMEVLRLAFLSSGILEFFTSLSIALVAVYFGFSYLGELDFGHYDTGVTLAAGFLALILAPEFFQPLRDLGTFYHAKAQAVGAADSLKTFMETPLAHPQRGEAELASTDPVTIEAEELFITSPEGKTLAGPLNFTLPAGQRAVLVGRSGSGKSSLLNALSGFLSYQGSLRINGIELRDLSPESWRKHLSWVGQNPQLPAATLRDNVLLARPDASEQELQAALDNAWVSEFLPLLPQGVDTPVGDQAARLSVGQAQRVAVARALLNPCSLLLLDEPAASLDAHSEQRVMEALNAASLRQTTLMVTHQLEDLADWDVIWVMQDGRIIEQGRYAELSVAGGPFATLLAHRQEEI

Molecules are shown by their SMILES.

The target in this experiment is T1, CydDC (C-His6-CydDC) (Escherichia coli, UniProt P23886+P29018, P29018:INS2NS).
T1 construct: gene cydD; full-length heterodimer (64 + 63 kDa); CydD with NS insertion between residues 2 and 3 (cloning artefact), CydC with C-terminal SAGGRGSH6 tag kept; plasmid pHX100 in E. coli BL21
Kind of experiment: stimulation of ATPase activity (colorimetric Pi release). It counts as biochemical.

For orientation: EC50 means the concentration giving half of the maximal effect.

As for `C=CC1=C(C)C2=Cc3c(C=C)c(C)c4[n]3[Fe]([Cl])[n]3c(c(C)c(CCC(=O)O)c3=CC3=NC(=C4)C(C)=C3CCC(=O)O)=CC1=N2` [hemin], the EC50 is roughly 0.05 µM.
